Test results reported in patent EP4847499A1, “HETEROCYCLIC COMPOUND FOR INDUCING DEGRADATION OF KRAS PROTEIN” (dated 2026).

Experiments:
Assay in all cases: Non-anchorage-dependent cell growth inhibition, spheroid 3D cell culture (CellTiter Glo 2.0)
[1] = tested on: human G12C mutant KRAS-positive pancreatic cancer line MIA PaCa-2; settings: read-out: G12C (MIA PaCa-2) IC50; MIA PaCa-2, 3D spheroid, 6 days
Text: (§1) Test Example 2: Evaluation of non-anchorage-dependent cell growth inhibitory effect on human G12V mutant KRAS-positive pancreatic cancer line PA-TU-8902, human G12D mutant KRAS-positive pancreatic cancer line PK-59, human G12C mutant KRAS-positive pancreatic cancer line MIA PaCa-2, human G12C mutant KRAS-positive lung cancer line NCI-H358, human G12D mutant KRAS-positive colorectal cancer line GP2d, human G13D mutant KRAS-positive colorectal cancer line LoVo, or human wild-type KRAS gene amplification-positive gastric cancer line MKN1 The non-anchorage-dependent cell growth inhibitory effect of test compounds was evaluated by spheroid 3D cell culture.
(§2) PA-TU-8902 cells or GP2d cells (ECACC, 95090714), Pk-59 cells (RIKEN BRC, RCB1901), MIA PaCa-2 cells (RIKEN BRC, RCB2094), NCI-H358 cells (ATCC, CRL-5807), LoVo cells (ATCC, CCL-229), or MKN1 cells (JCRB, JCRB0252) were seeded on low-cell-adhesive round bottom 384-well plates (Prime Surface: from Sumitomo Bakelite) at 36 µL/well to give 5 × 10^2 cells per well, and the PA-TU-8902 cells were cultured under the same conditions as in Test Example 1. The GP2d cells were cultured using DMEM medium containing 10% fetal bovine serum in the presence of 5% CO2 at 37°C. The PK-59 cells, MIA PaCa-2 cells, LoVo cells, NCI-H358 cells, or MKN1 cells were cultured using RPMI-1640 medium (from Sigma-Aldrich) containing 10% fetal bovine serum in the presence of 5% CO2 at 37°C.
(§3) The next day, the test compounds (10 points having final concentrations in the range of 10 µM to 0.03 nM) and DMSO, which was the solvent for the test compounds, as a negative control were diluted 100-fold with a fresh medium and were added at 4 µL to each well containing the PA-TU-8902 cells, PK-59 cells, MIA PaCa-2 cells, LoVo cells, NCI-H358 cells, or MKN1 cells. After culturing in the presence of 5% CO2 at 37°C for 6 days, CellTiter Glo 2.0 (from Promega) was added at 20 µL per well. After stirring with a plate mixer at room temperature for 1 hour, the luminescent signals were measured with ARVO X3 (from PerkinElmer).
(§4) With the signaling value in treatment with DMSO taken as a survival rate of 100% and with the signaling value in the medium alone without cells taken as a survival rate of 0%, the 50% inhibitory concentration (IC50) was calculated by Sigmoid-Emax model nonlinear regression analysis.

[2] = tested on: human G12D mutant KRAS-positive pancreatic cancer line PK-59; settings: read-out: G12D (PK-59) IC50; PK-59, 3D spheroid, 6 days
Text: as §1, §2, §3, §4

[3] = tested on: human G12V mutant KRAS-positive pancreatic cancer line PA-TU-8902; settings: read-out: G12V (PA-TU-8902) IC50; PA-TU-8902, 3D spheroid, 6 days
Text: as §1, §2, §3, §4

[4] = tested on: human G13D mutant KRAS-positive colorectal cancer line LoVo; settings: read-out: G13D (LoVo) IC50, 3D spheroid, 6 days
Text: as §1, §2, §3, §4

IC50 [1]: 2.9 nM | IC50 [2]: 16 nM | IC50 [3]: 9.1 nM | IC50 [4]: 70 nM
Structure (SMILES): CN(C)CC(C)(C)COc1nc(N2CC[C@H]2C(N)=O)c2cc(C3CC3)c(-c3cc(O)cc4ccc(F)cc34)c(OCc3ccc(C(=O)N4CCC5(CC4)CN(c4cc6c(cc4F)c(N4CCC(=O)NC4=O)nn6C)CCO5)cc3)c2n1 (single isomer, unassigned)
